{
  "sequences": {"note": "By UniProt entry, the sequences of proteins in these tests, tags left out.", "UniProt Q9GZQ4, whole entry A395T": "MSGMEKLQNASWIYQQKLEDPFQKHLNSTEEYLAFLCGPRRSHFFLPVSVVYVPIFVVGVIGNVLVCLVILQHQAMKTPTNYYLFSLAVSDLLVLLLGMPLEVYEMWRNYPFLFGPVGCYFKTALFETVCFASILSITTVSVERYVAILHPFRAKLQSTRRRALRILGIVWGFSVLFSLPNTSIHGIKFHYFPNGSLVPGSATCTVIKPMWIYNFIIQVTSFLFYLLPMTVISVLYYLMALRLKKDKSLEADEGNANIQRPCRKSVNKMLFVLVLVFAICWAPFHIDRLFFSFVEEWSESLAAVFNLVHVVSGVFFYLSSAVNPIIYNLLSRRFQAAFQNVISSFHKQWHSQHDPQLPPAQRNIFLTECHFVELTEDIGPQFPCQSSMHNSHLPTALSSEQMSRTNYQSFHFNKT"},
  "source": "patent US7151165B2",
  "about": "“Antibodies immunospecific for a novel human G-protein coupled receptor family” (priority 1999, dated 2006)",
  "biological_target": "T1, IGS4A (Homo sapiens, UniProt Q9GZQ4, A395T)",
  "T1 construct": "expressed in transfected cells; host or cells: CHOGα16 (CHO cells stably expressing Gα16, Molecular Devices), transfected with IGS4-pcDNA3.1",
  "assay": "FLIPR intracellular calcium mobilisation in CHOGα16-IGS4 cells (IGS4A)",
  "assay_type": "cell-based",
  "conditions": "read-out: EC50 for IGS4A; molar value printed beside log EC50",
  "experimental": "A. Method and Materials for IGS-4 Transfected CHOGα16IGS4 cells.\nThe following materials were used in the experiments: Vector containing IGS4-DNA sequence (IGS4-pcDNA3.1); SuperFect Transfection Reagent (Qiagen): Nut-Mix F12 (Gibco) with 10% FCS, 0.028 mg/ml Gentamycin (Gibco); 0.22 mg/ml Hygromycin (Gibco).\nMaterials used for clone selection: Nut-Mix F12 with 10% FCS; 0.028 mg/ml Gentamycin; 0.22 mg/ml Hygromycin and 0.55 mg/ml Geneticin (Gibco).\nThe following method was applied: Transfection with SuperFect Transfection Reagent was carried out as described by the manufacturer (Qiagen). Cells were plated in 24-well plates to 50% confluence. Per well […] plasmid-DNA with 1 μl SuperFect Transfection Reagent was added. After 24 hours the medium was changed and transfected cell clones were selected by Geneticin-containing selection-medium. […]\nThe method was worked as follows: The 2 mM stock of dye was mixed with an equal volume of 20% (w/v) pluronic acid immediately before adding to the loading-Buffer. […] In order to calculate the, background fluorescence, some wells were not dye loaded. The background fluorescence in these wells results from autofluorescence of the cells. After dye loading, cell were washed three times with Wash-Buffer (automated Denley cell washer) to reduce the basal fluorescence to 20.000–25.000 counts above background. […]",
  "data": [
    {"substance": "neuromedin U-25", "values": [
      {"measurement": "EC50", "value": 658, "unit": "nM"}
    ]}
  ]
}
